Data reported in US20260055088A1, “HETEROCYCLIC COMPOUND, METHOD FOR PREPARING SAME, AND PHARMACEUTICAL USE THEREOF” (Jiangsu Hengrui Pharmaceuticals Co., Ltd., priority 2022, published 2026).

Sequences of proteins named here, by UniProt entry; tags and fusion partners are left off.
UniProt Q9Y5Y9, whole entry: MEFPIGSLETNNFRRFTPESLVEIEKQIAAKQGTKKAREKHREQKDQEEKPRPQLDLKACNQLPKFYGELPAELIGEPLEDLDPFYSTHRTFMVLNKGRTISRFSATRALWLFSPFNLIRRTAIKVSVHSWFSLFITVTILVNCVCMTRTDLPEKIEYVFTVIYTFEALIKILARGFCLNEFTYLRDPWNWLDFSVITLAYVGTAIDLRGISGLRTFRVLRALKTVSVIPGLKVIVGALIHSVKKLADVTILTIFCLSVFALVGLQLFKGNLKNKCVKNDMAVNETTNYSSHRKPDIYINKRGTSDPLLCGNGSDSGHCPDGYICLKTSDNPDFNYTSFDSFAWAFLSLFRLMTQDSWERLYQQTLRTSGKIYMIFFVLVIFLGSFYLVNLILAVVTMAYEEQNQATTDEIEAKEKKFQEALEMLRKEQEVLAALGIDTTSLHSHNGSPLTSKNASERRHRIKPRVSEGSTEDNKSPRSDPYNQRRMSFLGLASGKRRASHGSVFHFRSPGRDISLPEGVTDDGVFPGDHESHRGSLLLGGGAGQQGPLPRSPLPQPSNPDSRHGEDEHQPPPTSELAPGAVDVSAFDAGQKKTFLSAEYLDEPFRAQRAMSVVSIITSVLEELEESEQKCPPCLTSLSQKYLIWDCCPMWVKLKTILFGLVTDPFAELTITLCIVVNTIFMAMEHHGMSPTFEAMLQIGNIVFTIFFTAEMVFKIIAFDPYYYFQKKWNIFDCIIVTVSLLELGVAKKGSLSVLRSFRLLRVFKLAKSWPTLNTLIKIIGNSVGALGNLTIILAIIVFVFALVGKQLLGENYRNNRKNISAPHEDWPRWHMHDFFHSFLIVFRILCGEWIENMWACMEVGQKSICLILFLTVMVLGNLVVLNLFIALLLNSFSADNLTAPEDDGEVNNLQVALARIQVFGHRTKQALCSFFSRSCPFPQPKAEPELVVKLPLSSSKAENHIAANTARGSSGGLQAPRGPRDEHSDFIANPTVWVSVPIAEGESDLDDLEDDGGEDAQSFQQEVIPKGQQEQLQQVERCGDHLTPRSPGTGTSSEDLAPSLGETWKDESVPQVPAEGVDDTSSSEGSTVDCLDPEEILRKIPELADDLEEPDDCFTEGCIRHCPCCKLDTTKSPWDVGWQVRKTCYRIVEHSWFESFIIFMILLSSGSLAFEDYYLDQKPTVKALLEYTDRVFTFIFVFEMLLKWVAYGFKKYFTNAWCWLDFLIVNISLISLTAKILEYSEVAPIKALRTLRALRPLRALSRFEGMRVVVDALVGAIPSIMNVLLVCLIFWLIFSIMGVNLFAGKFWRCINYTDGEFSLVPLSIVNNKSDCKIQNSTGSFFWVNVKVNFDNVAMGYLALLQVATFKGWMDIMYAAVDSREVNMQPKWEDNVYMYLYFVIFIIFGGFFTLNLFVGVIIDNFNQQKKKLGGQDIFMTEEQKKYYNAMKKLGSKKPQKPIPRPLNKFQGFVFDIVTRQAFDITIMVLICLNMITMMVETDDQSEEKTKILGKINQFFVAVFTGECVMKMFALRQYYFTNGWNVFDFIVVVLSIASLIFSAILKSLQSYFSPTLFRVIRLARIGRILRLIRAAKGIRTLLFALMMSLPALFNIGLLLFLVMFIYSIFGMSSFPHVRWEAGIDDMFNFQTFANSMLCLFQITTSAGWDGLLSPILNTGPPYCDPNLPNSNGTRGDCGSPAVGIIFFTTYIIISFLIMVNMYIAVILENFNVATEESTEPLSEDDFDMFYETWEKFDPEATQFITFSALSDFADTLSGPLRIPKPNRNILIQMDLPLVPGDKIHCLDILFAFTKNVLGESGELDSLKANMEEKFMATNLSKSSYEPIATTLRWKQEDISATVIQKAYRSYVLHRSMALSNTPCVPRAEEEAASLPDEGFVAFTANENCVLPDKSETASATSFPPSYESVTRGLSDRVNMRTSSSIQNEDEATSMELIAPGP

Molecular target: Nav1.8 ion channel stably expressed on HEK293 cells (Homo sapiens (Human), UniProt Q9Y5Y9)
Experiment: Inhibitory activity against Nav1.8, manual patch clamp
Type: cell-based
Conditions: read-out: IC50 for the inhibition of Nav1.8 channel activity, resting protocol (-80 mV to 10 mV), 1 μM TTX

Row | SMILES | IC50
1 | COc1c([C@H]2[C@H](C(=O)Nc3ccnc(C(N)CO)c3)O[C@@](C)(C(F)(F)F)[C@H]2C)ccc(F)c1F (single isomer, unassigned) [6-1 or 6-2 (synthesized from the compound with the longer re] | 0.85 nM
2 | COc1c([C@H]2[C@H](C(=O)Nc3ccnc(C(N)CO)c3)O[C@@](C)(C(F)(F)F)[C@H]2C)ccc(F)c1F (single isomer, unassigned) [6-1 or 6-2 (synthesized from the compound with the shorter r] | 2.23 nM
